## Measured affinities in a library of Ab-14 light chain variants

All variants were tested on one target, the spike HR2 peptide PDVDLGDISGINAS (SARS-CoV-2).

Ab-14 is the parent antibody, in scFv form: VH, then the linker GGGGSGGGGSGGGGS, then VL. The heavy chain is unchanged in all variants.
VH: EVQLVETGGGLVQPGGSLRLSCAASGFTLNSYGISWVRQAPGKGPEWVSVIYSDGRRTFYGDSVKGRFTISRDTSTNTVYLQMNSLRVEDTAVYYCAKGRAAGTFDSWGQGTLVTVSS
VL: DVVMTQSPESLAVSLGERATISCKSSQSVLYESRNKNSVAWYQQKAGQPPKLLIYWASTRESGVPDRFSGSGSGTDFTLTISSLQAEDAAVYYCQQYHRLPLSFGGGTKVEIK

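Phage display of a naive human antibody library on the peptide gave the parent. This is the validation round: designs drawn from the data on random variants, tested in the same kind of assay. Group labels follow the data file (Ctrl: baseline library sampled from a position-specific scoring matrix, with some repeated check sequences; En: ensemble of fine-tuned language models; GP: Gaussian process model; HC: hill climbing; Gen: genetic algorithm; Gibbs: Gibbs sampling; a sequence that several methods proposed may carry one label only). AlphaSeq pools MATa yeast showing the antibodies with MATalpha yeast showing the peptide. Mating (16 h, 30 °C) was followed by selection of diploids and sequencing of their barcodes. A regression on co-assayed BCL2-family reference pairs converts the normalised counts of each replicate to an apparent Kd. There are six technical replicates.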

Each variant is given by its three light chain CDRs, as the data file delimits them; those of the parent are KSSQSVLYESRNKNSVA, WASTRES, QQYHRLPLS. Kd is apparent (estimated from mating counts) and averaged on the log scale over replicates with a signal. Smaller is tighter. "no signal" marks a missing value. The strain was present, yet no cells mated with the target were sequenced in any replicate, which points to weak or no binding. Entries are sorted by rising average, undetected variants last. Nonspecific signal, from three strains lacking the peptide, appeared in 4% of pairings of all light chain designs, centred on 430 nM (5% of these signals below 38 nM); values are not corrected for it. For each scFv, signals with the empty controls are counted beside the result. The range of this assay differs from that of the first round, and the authors advise against merging the two. In the paper, a design with two or fewer of six values counts as a poor binder. Of ten entries with the parent sequence, four were seen in most replicates (averages 2.2 nM to 240 nM), three in one and three in none, so single entries are noisy.

| # | CDR-L1 | CDR-L2 | CDR-L3 | group | apparent Kd | replicates with signal | control signals |
|---|---|---|---|---|---|---|---|
| 1 | KVKQSWLYESRNSNNVA | NASKRES | QQYHRLPLS | GP_Gibbs | 410 pM | 6/6 | 0/18 |
| 2 | KVSTSELEESRNKNSVA | WASLREE | QQYHRLPLS | GP_Gibbs | 470 pM | 1/6 | 0/18 |
| 3 | KQSQSDGGEQRNKNSVA | EASTRCE | QQYHRLPLS | GP_Gibbs | 510 pM | 6/6 | 0/18 |
| 4 | KISQSVWYESRNKNSVA | NASTRES | QQYHRLPLS | GP_Gen | 520 pM | 6/6 | 0/18 |
| 5 | KTQQGVLYESRNKNSVA | GASVRES | QQYHRLPLS | GP_HC | 540 pM | 6/6 | 0/18 |
| 6 | KVQQSHLYESRNKNSVA | EASTRES | QQYHRLPLS | GP_Gen | 670 pM | 6/6 | 1/18 |
| 7 | KLQQSVLQLWRNDNSVA | QASHRES | QQYHRLPLS | GP_Gibbs | 670 pM | 6/6 | 0/18 |
| 8 | KVSNSVDGEDRNKNAVA | EASTRES | QQYHRLPLS | GP_Gibbs | 700 pM | 6/6 | 0/18 |
| 9 | KLSQSVLYESRNKNSVA | NASQREQ | QQYHRLPLS | GP_Gen | 700 pM | 6/6 | 1/18 |
| 10 | KLEQSNNYESRNKNSVA | NASTRES | QQYHRLPLS | GP_HC | 770 pM | 6/6 | 0/18 |
| 11 | KLEQSVLYESRNKNSVA | NGSTRES | QQYHRLPLS | GP_Gen | 930 pM | 6/6 | 2/18 |
| 12 | MLSNEQDYNYSADNSVA | DVTEKCN | QQYKRLPLT | En_Gibbs | 940 pM | 6/6 | 0/18 |
| 13 | KFSQSVEYESRTKNSVA | NASTRES | QQYHRLPLS | GP_HC | 1.1 nM | 6/6 | 0/18 |
| 14 | KIQQSYLYEDRNKNSVA | NASTRLW | QQYHRLPLS | GP_Gibbs | 1.2 nM | 6/6 | 0/18 |
| 15 | KLSQSVLYESRMKNNVA | NASQRES | QQYHRLPLS | GP_Gen | 1.3 nM | 6/6 | 0/18 |
| 16 | KLSQSNLYESRNKNSVA | NASQRES | QDYHRLPLS | GP_Gen | 1.4 nM | 6/6 | 0/18 |
| 17 | KMAQGWMYESRMKNSVA | NASVREM | QQYHRLPLS | GP_Gibbs | 1.4 nM | 6/6 | 0/18 |
| 18 | KLEQSDWLQSRNVNSVA | QASTRES | QQYHRLPLS | GP_Gibbs | 1.4 nM | 6/6 | 1/18 |
| 19 | KLSQSVLYESRNTNSVA | EASTRES | QQYHRLPLS | GP_Gen | 1.5 nM | 6/6 | 1/18 |
| 20 | KLSQSELYESRNKNSVA | NASLRMS | QQYHRLPLS | GP_Gen | 1.9 nM | 6/6 | 0/18 |
| 21 | KVSQSVLYESRNKNAVA | HASTRES | QQYHRLPLS | GP_Gen | 1.9 nM | 6/6 | 2/18 |
| 22 | KSSCSYLYESRNTNSVA | EASTRES | QQYHRLPLS | GP_HC | 2.0 nM | 6/6 | 0/18 |
| 23 | KVSQSGLYESRNKNNVA | NASTRES | QQYHRLPLS | GP_Gen | 2.1 nM | 6/6 | 2/18 |
| 24 | KSSISYLGLSRNKNSVA | EASTRES | QQYHRLPLS | GP_HC | 2.2 nM | 6/6 | 1/18 |
| 25 | KIHCRELMHQGQINNIA | EAAKLVE | QQYALLPLA | En_Gibbs | 2.3 nM | 6/6 | 0/18 |
| 26 | KSSQSVLYESENKNSVA | WASTRES | QQYMRLPLS | Ctrl | 2.3 nM | 6/6 | 0/18 |
| 27 | KFSQSVGYQSRNKNSVA | NAQTRMQ | QQYHRLPLS | GP_Gibbs | 2.7 nM | 6/6 | 2/18 |
| 28 | TISQSAQMESHNKNSVA | DLNVRGS | QQYDRLPLS | En_HC | 3.3 nM | 6/6 | 1/18 |
| 29 | KISQMVRVGSTLSNSIA | EEVTRAK | QQYHRLPLS | En_Gen | 3.4 nM | 6/6 | 0/18 |
| 30 | KVSQGVLDESRNKNSVA | WASTRES | QQYHRLPLS | GP_Gibbs | 4.9 nM | 6/6 | 3/18 |
| 31 | KCSQSVLYESRNHNSVA | YASTRES | QQYHRLPLS | Ctrl | 5.0 nM | 6/6 | 2/18 |
| 32 | KSSPSVYYESHNKNSVA | NASTRMS | QQYHRLPLS | GP_HC | 5.0 nM | 6/6 | 0/18 |
| 33 | KLWAYTQGLFRNMQNIA | DGIYRVT | QQYGRLPLS | En_Gibbs | 5.1 nM | 6/6 | 2/18 |
| 34 | KQQQSGLGEERNFNSVA | HASTRIS | QQYHRLPLS | GP_Gibbs | 5.1 nM | 6/6 | 1/18 |
| 35 | KLMQSVLYESRNKNSVA | HASKRED | QQYHRLPLS | GP_HC | 5.3 nM | 6/6 | 1/18 |
| 36 | KVDQSEMLESRWKNSVA | SASTRIS | QQYHRLPLS | GP_Gibbs | 5.3 nM | 6/6 | 1/18 |
| 37 | KSSQSVLYESNNKNSVA | AASTRYS | QQYHRLPLS | Ctrl | 5.8 nM | 6/6 | 2/18 |
| 38 | KSSQSVLYQSRNQNSVA | AASTRES | QQYHGLPLS | Ctrl | 6.0 nM | 6/6 | 0/18 |

The remaining entries, values ahead:

| # | apparent Kd | replicates with signal | control signals | CDR-L1 | CDR-L2 | CDR-L3 | group |
|---|---|---|---|---|---|---|---|
| 39 | 6.1 nM | 6/6 | 1/18 | KLKTMPGEIPKEGNSVA | HAEARTP | QQYHRLPLI | En_Gibbs |
| 40 | 6.1 nM | 6/6 | 0/18 | KSSQSVLYENRNKNSVA | EASTRES | QQYHRLPLS | Ctrl |
| 41 | 8.0 nM | 6/6 | 1/18 | KLDLITNPGNLMHNSVA | AATVKWE | QQYSQLPLS | En_Gibbs |
| 42 | 9.0 nM | 6/6 | 0/18 | MFSQLFMYGSRNYNSIA | QASTRES | QQYHRLPLI | En_HC |
| 43 | 9.6 nM | 6/6 | 1/18 | YMSMYLDMQDSIQCGVA | DATTRNA | QQYQRLPLS | En_Gibbs |
| 44 | 10 nM | 6/6 | 0/18 | MVYQATMMGTVTRNSIA | NAQMRPD | QQYHRLPLI | En_Gen |
| 45 | 10 nM | 6/6 | 2/18 | SLQDMEREMNSHEQAIA | DGTESAR | QQYFQLPLH | En_Gibbs |
| 46 | 13 nM | 6/6 | 0/18 | KVSQCVLYESRNKNSVA | MASTRES | QQYHRLPLS | GP_HC |
| 47 | 14 nM | 6/6 | 1/18 | SVHFQGTTGEQNWESVA | ENSIRVE | QQYSHLPLL | En_Gibbs |
| 48 | 15 nM | 6/6 | 0/18 | KSSQSVLYEWRNKNSVA | WASTRES | QQYFILPLS | Ctrl |
| 49 | 16 nM | 6/6 | 0/18 | KSSQSVSYESMNKNSVA | WASTRES | QQYHRLPLT | Ctrl |
| 50 | 17 nM | 6/6 | 1/18 | KLSQSVLGQWRNKNSVA | HASTREQ | QDYHRLPLS | GP_Gibbs |
| 51 | 18 nM | 6/6 | 1/18 | TISQVLNTLTKTGNNVA | DLAEREQ | QQYFRLPLS | En_Gen |
| 52 | 19 nM | 6/6 | 1/18 | MVLKEDFQELAAKNAVA | NASEKET | QHYNRLPLV | En_Gibbs |
| 53 | 19 nM | 6/6 | 0/18 | ILLQVSTEHGAALNNIA | EGARRLD | QQYARLPLV | En_Gibbs |
| 54 | 20 nM | 6/6 | 0/18 | KLMGSVLYESRWKNAVA | GASQRES | QQYHRLPLS | GP_Gibbs |
| 55 | 23 nM | 6/6 | 0/18 | KSSQSVLAESRNKNSVA | NASTRES | QQYARLPLY | Ctrl |
| 56 | 45 nM | 6/6 | 0/18 | KLRISTGYESRNKDSIA | DNSTRGR | QQYHRLPLS | En_HC |
| 57 | 56 nM | 5/6 | 0/18 | MVSQLMVWGMHTKNSIA | EAQTRIN | QQYDRLPLF | En_Gen |
| 58 | 89 nM | 6/6 | 1/18 | KLSGFHQVESINKSNVA | EMVTRES | QQYDRLPLS | En_HC |
| 59 | 100 nM | 5/6 | 1/18 | KSSQSVLYEERNKNSVA | MASTREL | QQYHRLPLS | Ctrl |
| 60 | 130 nM | 1/6 | 0/18 | KLSQMLMLTGVHKNNVA | ELTMRGN | QQYHRLPLM | En_Gen |
| 61 | 130 nM | 1/6 | 0/18 | KSSQSVLYESRNKNSVA | TADTRES | QQYHRLPLS | Ctrl |
| 62 | 200 nM | 2/6 | 0/18 | KLSSFHNVESINKSNVA | EMVTRES | QQYDRLPLS | En_HC |
| 63 | 210 nM | 5/6 | 0/18 | KSSQSVLAEKRCKNSVA | WASTRES | QQYHNLPLS | Ctrl |
| 64 | 290 nM | 1/6 | 0/18 | ASSQSVLYESYNKNSVA | WASTRES | QQYHRLPLS | Ctrl |
| 65 | 340 nM | 3/6 | 0/18 | QLLMATMQGTYNRNSVA | HAQVRND | QSYHRLPLS | En_HC |
| 66 | 360 nM | 2/6 | 0/18 | IIDQIMYHGNKRANSIA | QASERLN | QQYHHLPLD | En_Gen |
| 67 | 390 nM | 3/6 | 1/18 | KSSQSVLYESRNKNSVA | WASTRES | QQSHRLPLS | Ctrl |
| 68 | 460 nM | 1/6 | 1/18 | MISQLYNMGTFAINSVA | QASIRNI | QQYDRLPLI | En_Gen |
| 69 | 650 nM | 3/6 | 0/18 | MVSQLMLWGMHAKNSIA | EAQTRIN | QQYDRLPLF | En_Gen |
| 70 | 830 nM | 5/6 | 2/18 | KVSVFPRGLMSRQDSIA | DNVTRSN | QQYDRLPLS | En_Gen |
| 71 | 1.0 µM | 3/6 | 0/18 | KISMTVTFESRNKNSVA | ENSTRES | QSYHRLPLS | En_HC |
| 72 | no signal | 0/6 | 0/18 | FMEMDFQGNSGNHNSIA | SEEVKTR | QHYARLPLS | En_Gibbs |
| 73 | no signal | 0/6 | 0/18 | KDIKSVLYESNNKNSVA | WASTRED | QQYHRLYLS | Ctrl |
| 74 | no signal | 0/6 | 0/18 | KMSQSKLYESFNKNNVA | WASTRES | QQYHRLPLS | Ctrl |
| 75 | no signal | 0/6 | 0/18 | KLQQQWLYESRNKNSVA | SASTRES | QQYHRLPLS | GP_HC |
| 76 | no signal | 0/6 | 0/18 | KFMISLEYQMAEQNNIA | HGEISTV | QQYSRLPIY | En_Gibbs |
| 77 | no signal | 0/6 | 0/18 | ILSQSVLMGSHLKNSVA | QASTRFS | QQYHRLPLV | En_HC |

Source: Li et al. 2023 (doi:10.1038/s41467-023-39022-2), MIT Lincoln Laboratory and A-Alpha Bio; data file from the FLAb repository.